Data published in article PMC11612315, “GLP-1 and its derived peptides mediate pain relief through direct TRPV1 inhibition without affecting thermoregulation” (Experimental & Molecular Medicine, 2024).

By UniProt entry, the sequences of proteins in these tests, tags left out.
UniProt Q8NER1, whole entry: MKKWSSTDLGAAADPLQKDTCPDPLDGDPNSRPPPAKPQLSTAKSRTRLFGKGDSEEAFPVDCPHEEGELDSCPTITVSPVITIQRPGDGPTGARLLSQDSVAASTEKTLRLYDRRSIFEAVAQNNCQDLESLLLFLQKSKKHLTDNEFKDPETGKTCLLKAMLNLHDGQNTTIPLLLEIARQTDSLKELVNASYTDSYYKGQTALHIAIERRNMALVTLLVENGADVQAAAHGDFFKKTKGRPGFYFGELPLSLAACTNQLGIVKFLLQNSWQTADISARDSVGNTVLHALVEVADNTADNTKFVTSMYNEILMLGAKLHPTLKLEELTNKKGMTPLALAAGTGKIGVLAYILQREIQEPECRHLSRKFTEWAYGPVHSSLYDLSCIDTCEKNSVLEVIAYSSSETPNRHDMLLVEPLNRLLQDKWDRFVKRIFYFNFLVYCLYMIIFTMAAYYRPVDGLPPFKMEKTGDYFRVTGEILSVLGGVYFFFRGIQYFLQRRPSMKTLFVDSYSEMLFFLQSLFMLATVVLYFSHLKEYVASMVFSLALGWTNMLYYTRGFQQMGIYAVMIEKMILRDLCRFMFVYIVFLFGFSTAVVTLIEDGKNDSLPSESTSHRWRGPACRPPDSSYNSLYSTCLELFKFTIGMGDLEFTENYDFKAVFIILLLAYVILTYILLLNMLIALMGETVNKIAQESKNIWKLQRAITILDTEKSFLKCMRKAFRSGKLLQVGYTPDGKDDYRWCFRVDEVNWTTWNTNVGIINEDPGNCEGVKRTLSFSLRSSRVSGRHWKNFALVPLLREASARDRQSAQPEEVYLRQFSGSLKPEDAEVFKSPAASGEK

Target: T1, human TRPV1 (Homo sapiens, UniProt Q8NER1)
T1 construct: expressed in transfected cells
Test: Ca2+ imaging in CHO K1 cells expressing human TRPV1, CAP-induced
Assay type: cell-based

GLP-1(7–36)
LogIC50 (CAP 100 nM, text in picture Fig. 5h): 2.252 | IC50 (read-out: IC50 for the calcium response, CAP 100 nM, logistic fit, ± Std. Error): 179 nM
